The numbers were not newly measured in US20250194589A1 (published 2025), which cites them from elsewhere.

For this series the following is noted: 25° C.

For Emamectin benzoate, the Degree of water-solubility was 0.024 mg/mL.
